One data set has as its target androgen receptor (Homo sapiens, UniProt P10275, T878A). In words: Measurement of protein expression of the androgen receptor in LNCaP cells (AR ELISA). The settings on record: read-out: IC50 AR destruction in LNCaP; 3 days treatment, whole cell protein, AR ELISA kit. (In an ELISA, binding on a coated surface is turned into a signal by an enzyme label.)
The subject of a further data set is VCaP. The data set is described as follows: Anti-proliferative activity on VCaP in complete medium. The settings on record: read-out: VCaP IC50, Cell-Titer-Glow, reading after 9 days.
In another data set the test system is DU145. The data set is described as follows: Anti-proliferative activity on DU145 in complete medium. The following applies: read-out: DU145 IC50, 144 h incubation, Cell-Titer-Glow, line does not express androgen receptor.
Data set [1] is described as follows: Evaluation of solubility in potassium phosphate buffer pH 7.4. The following applies: 100 mM potassium phosphate buffer pH 7.4, target 10 μM, 0.1% DMSO, 1 hour room temperature, LC-MS/MS.
For a further data set, the system named is LNCaP. The data set is described as follows: Anti-proliferative activity on LNCaP in complete medium. The settings on record: read-out: LNCaP IC50, 144 h incubation, Cell-Titer-Glow.

Amino acid sequences for entries named in this document (tags omitted).
UniProt P10275, whole entry T878A: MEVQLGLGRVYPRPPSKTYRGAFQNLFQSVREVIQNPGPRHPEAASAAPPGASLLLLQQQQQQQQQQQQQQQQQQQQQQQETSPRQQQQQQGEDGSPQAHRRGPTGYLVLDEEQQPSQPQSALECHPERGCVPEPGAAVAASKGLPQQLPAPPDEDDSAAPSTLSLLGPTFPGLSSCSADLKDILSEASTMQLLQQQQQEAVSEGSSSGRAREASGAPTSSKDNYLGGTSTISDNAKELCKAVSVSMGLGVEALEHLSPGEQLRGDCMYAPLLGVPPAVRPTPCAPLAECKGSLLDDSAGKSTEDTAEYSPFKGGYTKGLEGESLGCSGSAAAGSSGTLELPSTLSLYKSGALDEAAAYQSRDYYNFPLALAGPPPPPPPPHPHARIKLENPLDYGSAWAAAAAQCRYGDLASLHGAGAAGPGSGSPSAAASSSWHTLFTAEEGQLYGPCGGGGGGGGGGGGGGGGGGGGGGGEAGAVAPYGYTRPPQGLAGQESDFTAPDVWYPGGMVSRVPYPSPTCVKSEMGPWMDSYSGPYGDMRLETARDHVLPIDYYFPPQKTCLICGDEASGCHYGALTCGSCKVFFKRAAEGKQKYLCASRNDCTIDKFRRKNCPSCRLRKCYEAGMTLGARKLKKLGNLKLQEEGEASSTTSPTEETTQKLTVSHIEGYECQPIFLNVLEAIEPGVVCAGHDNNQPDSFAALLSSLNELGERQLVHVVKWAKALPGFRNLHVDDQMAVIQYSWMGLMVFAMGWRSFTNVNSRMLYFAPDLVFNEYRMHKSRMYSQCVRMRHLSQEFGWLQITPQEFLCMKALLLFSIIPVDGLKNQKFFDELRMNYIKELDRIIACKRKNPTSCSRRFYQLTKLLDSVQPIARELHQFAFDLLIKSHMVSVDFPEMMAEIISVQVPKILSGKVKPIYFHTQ

From patent US9676752B2, “Imidazolidine-2,4-dione derivatives” (IPSEN PHARMA S.A.S., priority 2013, dated 2017) come the findings set out here.

As to `CC1(C)C(=O)N(c2ccc(C#N)c(C(F)(F)F)c2)C(=O)N1C/C=C\CN1C(=O)N(c2ccc(C#N)c(C(F)(F)F)c2)C(=O)C1(C)C`, the IC50 at androgen receptor was 147 nM; with VCaP it was 543 nM; in the data set on DU145 it was above 10000 nM; in the data set on LNCaP, 207 nM. In data set [1], the Solubility was below 0.02 µM.

What is called IC50 is the concentration that gives 50% inhibition. By Solubility is commonly meant the dissolved amount per volume that the medium holds.
